Earlier results on one substance are cited in US20230046278A1, “METHOD FOR COLOURING KERATIN MATERIAL, COMPRISING THE USE OF AN ORGANIC C1-C6 ALKOXYSILANE AND TWO STRUCTURALLY DIFFERENT CELLULOSE TYPES” (Henkel AG & Co. KGaA, priority 2019, published 2023).

For this data set the following is noted: 25° C.

Take “3,4,5,6-tetrachloro-2-(1,4,5,8-tetrabromo-6-hydroxy-3-oxoxanthen-9-yl)benzoic acid [Acid Red 92]”: the solubility in water result is listed as “greater than 10 g/L”.
